Source: patent US20030032774A1, “Novel opioid peptides for the treatment of pain” (priority 1994, published 2003)

System: hot-plate response in mice
Details: mouse, in vivo

CN1CC[C@]23c4c5ccc(O)c4O[C@H]2[C@@H](O)C=C[C@H]3[C@H]1C5 [morphine, reference compound]
reaction time in the hot plate test: approximately 17 seconds
